# Measured affinities in a library of Ab-14 light chain variants

All variants were tested on one target, the spike HR2 peptide PDVDLGDISGINAS (SARS-CoV-2).

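The starting antibody came from a phage panning campaign against this peptide. Library AAYL50 holds single substitutions and randomly drawn double and triple substitutions in the CDRs. In AlphaSeq, yeast of one mating type display the scFv and yeast of the other type display the target. After mating in shaken culture at 30 °C for 16 h, diploids were selected and their barcode pairs sequenced. A regression on co-assayed BCL2-family reference pairs converts the normalised counts of each replicate to an apparent Kd. Each pool was mated in three replicate cultures.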

Each scFv is VH, a (GGGGS)3 linker, VL, as in the parent Ab-14, and differs from it in the CDRs of the light chain only.
VH: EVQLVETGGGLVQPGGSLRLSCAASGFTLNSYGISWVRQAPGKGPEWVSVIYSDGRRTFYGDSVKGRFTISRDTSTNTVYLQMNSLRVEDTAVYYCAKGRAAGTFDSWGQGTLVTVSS
VL: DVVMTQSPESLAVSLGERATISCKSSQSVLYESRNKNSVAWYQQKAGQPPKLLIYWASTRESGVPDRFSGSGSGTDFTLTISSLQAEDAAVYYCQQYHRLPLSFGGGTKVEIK

Changes read parent residue, position, new residue, counted from the first residue of the VL shown.
This list gathers variants with a substitution at Q95 (VL, numbered from residue 1).
The Kd shown is the geometric mean over detected replicates; a lower Kd is a better binder.
"nd" means that the variant was in the library but no mating with the target was seen in any replicate; the authors take this as a sign of poor binding, and no number exists.
Nonspecific signal, from three strains lacking the peptide, appeared in 18% of pairings of library AAYL50, centred on 15 µM (5% of these signals below 970 nM); values are not corrected for it. Also given: how often the same scFv was detected with the empty control strains.
In this assay the parent's reference entry averaged 4.4 nM; its copy inside this library read 48 nM.

changes	Kd (apparent)	detected	empty controls
K24C/Q95S	1.4 µM	1/3	0/9
L30Q/E61H/Q95F	nd	0/3	0/9
V39D/Q95C	nd	0/3	0/9
Q95Y/P101T	nd	0/3	1/9
Q27Y/Q95E/S103A	300 nM	3/3	1/9
W56Y/S62K/Q95D	250 µM	2/3	2/9
R34I/S38I/Q95G	nd	0/3	4/9
V29N/Q95D/Q96Y	38 nM	3/3	0/9
V39I/S62G/Q95V	32 nM	3/3	0/9
Q27S/A40C/Q95I	nd	0/3	1/9
E32L/N35M/Q95L	1.4 µM	3/3	3/9
R60H/Q95F/H98T	7.3 µM	1/3	1/9
S38R/Q95F	29 µM	2/3	3/9
S25L/K36T/Q95C	19 nM	3/3	0/9
Q95R	30 µM	1/3	4/9
Y31A/S38E/Q95G	57 µM	1/3	2/9
E32D/R60F/Q95R	nd	0/3	0/9
S25I/Q95M/L100H	4.6 nM	3/3	2/9
W56N/Q95I/Y97P	3.8 nM	3/3	2/9
Q95H/R99G/L100Q	35 µM	1/3	2/9
N37T/R60T/Q95C	nd	0/3	1/9
N35R/Q95H	4.9 µM	1/3	3/9
S38I/Q95P/L102W	53 µM	3/3	4/9
Q27R/Q95F	23 µM	2/3	2/9
N37L/Q95K/Q96C	660 nM	3/3	3/9
R34Y/N35D/Q95C	nd	0/3	0/9
N35I/Q95P/P101K	24 nM	3/3	3/9
S26R/Q95S/R99M	14 nM	3/3	4/9
R60F/E61C/Q95A	nd	0/3	0/9
S28Y/S33K/Q95H	110 µM	1/3	1/9
Q95E/Q96L	300 nM	3/3	2/9
N35Q/Q95V	nd	0/3	1/9
K36S/S58D/Q95A	1.1 µM	3/3	6/9
E32K/V39G/Q95G	110 µM	2/3	0/9
A40L/E61C/Q95L	1.6 µM	1/3	3/9
Q95R/Y97D/H98P	19 nM	3/3	4/9
S38R/Q95C/H98D	2.9 µM	2/3	0/9
S25E/R60K/Q95K	6.9 µM	1/3	0/9
N37K/Q95M	24 µM	2/3	1/9
W56M/Q95R/Q96H	7.0 nM	3/3	3/9
L30Q/Y31V/Q95N	5.7 nM	3/3	2/9
S26Y/S58H/Q95N	1.4 nM	3/3	7/9
S28N/Q95H/L102T	58 nM	3/3	3/9
N37P/S62L/Q95F	210 µM	1/3	1/9
R34H/Q95W/R99L	9.1 nM	3/3	2/9
K24L/A40Y/Q95C	nd	0/3	3/9
W56D/R60S/Q95G	15 nM	3/3	0/9
K24F/A57H/Q95L	10 µM	1/3	0/9
Q95V/L100N/S103E	7.9 µM	1/3	1/9
Q95G/Y97T	nd	0/3	1/9
S25G/S38H/Q95T	660 nM	3/3	1/9
L30C/E61D/Q95L	95 nM	3/3	2/9
S38I/A57V/Q95V	nd	0/3	1/9
Y31H/Q95T	1.8 µM	3/3	7/9
N37D/Q95F	34 nM	3/3	2/9
A40F/Q95N/P101H	30 µM	3/3	1/9
Q95I/R99W/L100V	12 nM	3/3	1/9
K36F/V39M/Q95T	17 nM	3/3	1/9
Q95A/L100D	1.1 µM	1/3	1/9
K24D/A57I/Q95S	nd	0/3	2/9
V39P/S58L/Q95T	nd	0/3	0/9
S33I/Q95C	nd	0/3	1/9
S26I/A40D/Q95Y	9.4 µM	1/3	1/9
S26G/Q95H/S103P	nd	0/3	2/9
N35H/S38D/Q95V	9.8 µM	2/3	4/9
Q95E/Q96R/P101C	nd	0/3	0/9
T59L/Q95Y/L102W	nd	0/3	0/9
S28G/A57D/Q95W	140 µM	3/3	4/9
V29C/A40S/Q95A	8.6 µM	2/3	3/9
V29M/N37A/Q95G	27 nM	3/3	2/9
T59Q/Q95G	83 nM	3/3	2/9

From the AlphaSeq antibody data of Engelhart et al. 2022 (doi:10.1038/s41597-022-01779-4), copy in the FLAb collection.